AlphaSeq binding of Ab-14 light chain variants to a spike HR2 peptide

The measurements come from Li et al. 2023 (doi:10.1038/s41467-023-39022-2) through the FLAb antibody collection.

All variants were tested on one target, the spike HR2 peptide PDVDLGDISGINAS (SARS-CoV-2).

Parent scFv Ab-14: VH joined to VL by a (GGGGS)3 linker. Changes lie in the light chain CDRs alone.
VH: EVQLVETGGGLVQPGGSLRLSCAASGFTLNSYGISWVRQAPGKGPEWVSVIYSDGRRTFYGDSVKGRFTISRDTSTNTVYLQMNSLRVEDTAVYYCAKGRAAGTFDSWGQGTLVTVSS
VL: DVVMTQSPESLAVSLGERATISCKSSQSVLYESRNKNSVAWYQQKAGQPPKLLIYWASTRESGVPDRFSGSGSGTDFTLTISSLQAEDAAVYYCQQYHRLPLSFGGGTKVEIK

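The parent was found by panning a naive human phage display library on the peptide. The variants were designed computationally from a first round of random CDR variants and then made and measured. Group labels follow the data file (Ctrl: baseline library sampled from a position-specific scoring matrix, with some repeated check sequences; Rand: our label for a block that the file lists under HC and that is probably the random mutants of the ten best first-round binders; GP: Gaussian process model; HC: hill climbing; Gen: genetic algorithm; Gibbs: Gibbs sampling; a sequence that several methods proposed may carry one label only). In AlphaSeq, yeast of one mating type display the scFv and yeast of the other type display the target. Pairs that bind mate more often; barcode pairs of the diploids are counted by sequencing. Scores were corrected for input abundance and mapped to Kd with protein pairs of known affinity run in the same pool. There are six technical replicates.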

Variants are written as CDR1, CDR2 and CDR3 of the light chain (limits as in the source). Parent: KSSQSVLYESRNKNSVA, WASTRES, QQYHRLPLS. This list holds designs with at most six substitutions. Kd is apparent (estimated from mating counts) and averaged on the log scale over replicates with a signal. Smaller is tighter. "nd" marks a missing value. The strain was present, yet no cells mated with the target were sequenced in any replicate, which points to weak or no binding. The parent sequence was in this pool as ten entries: three were never detected, three once, and four in most replicates, with averages from 2.2 nM to 240 nM. Background: pairings of all light chain designs with three empty control strains gave a value in 4% of cases (median 430 nM, 5th percentile 38 nM). Values in that range, when seen in few replicates, are hard to tell from nonspecific mating. Also given: how often the same scFv was detected with the empty control strains. A sequence measured in both rounds can read differently, since the two assays cover different ranges. In the paper, a design with two or fewer of six values counts as a poor binder.

- KSSQSVLYETRNENSVA | HASTRES | QQYFRLPLS [Ctrl] -> 1.7 nM (6 of 6 replicates; controls 0 of 18)
- KSDQSVLYESRDKNSVA | HASTRED | QQYHRLPLS [GP_HC] -> 2.2 nM (6 of 6 replicates; controls 3 of 18)
- KSSQSVDEESRNKNSVA | AASTRES | QQYHRLPLS [Ctrl] -> 880 pM (6 of 6 replicates; controls 2 of 18)
- KSSQSVPYESRNKNSVA | NASTREE | QQYHRLPLS [GP_HC] -> 530 pM (6 of 6 replicates; controls 0 of 18)
- KLSQSQLYESRNKNSVA | QASTRES | QQYHRLPLS [GP_Gen] -> 1.8 nM (6 of 6 replicates; controls 0 of 18)
- KRSQSVLYESLNKNSVA | KASTRES | QQYHRLPLK [Ctrl] -> 39 nM (3 of 6 replicates; controls 0 of 18)
- KSSQSVLYESRNKNSVA | WDSTRES | QQYHRLPLS [Ctrl] -> nd (0 of 6 replicates; controls 0 of 18)
- KISQSWLYESRNKNSVA | NGSTRES | QQYHRLPLS [GP_Gen] -> 580 pM (6 of 6 replicates; controls 0 of 18)
- KSSQSVLYESSNKNSVA | WASTRES | QQYHRLPCS [Ctrl] -> 250 nM (2 of 6 replicates; controls 1 of 18)
- KSSQSVPYESRNKNSVA | NASTREQ | QQYHRLPLS [GP_Gen] -> 1.3 nM (6 of 6 replicates; controls 0 of 18)
- VSSPSVLYESRNKNSVA | NASTRWS | QQYHRLPLS [Rand] -> 5.9 nM (6 of 6 replicates; controls 0 of 18)
- HSSPSVLYESRNKNSVA | NSSTRES | QQYHRLPLS [Rand] -> 1.6 nM (6 of 6 replicates; controls 1 of 18)
- KFSQSVLYESRAKNGVA | NASTRES | QQYHRLPLS [GP_HC] -> 1.3 nM (6 of 6 replicates; controls 0 of 18)
- KLQQSVCYESRNKNSVA | NASTRMS | QQYHRLPLS [GP_Gen] -> 880 pM (6 of 6 replicates; controls 4 of 18)
- KLEWSQLYESRNKNSVA | NASTRES | QQYHRLPLS [GP_Gen] -> 1.0 nM (6 of 6 replicates; controls 2 of 18)
- KLSQSKLYESRNKNNVA | DASTRES | QQYHRLPLS [GP_Gen] -> 380 pM (6 of 6 replicates; controls 1 of 18)
- KSSMSPLYESRNTNSVA | EASTRES | QQYHRLPLS [GP_HC] -> 3.6 nM (6 of 6 replicates; controls 1 of 18)
- KYYPSYLYESRNKNSVA | DASTRES | QQYHRLPLS [GP_HC] -> 1.5 nM (6 of 6 replicates; controls 2 of 18)
- KLQQQWLYESRNKNSVA | QASTREE | QQYHRLPLS [GP_HC] -> 2.2 nM (6 of 6 replicates; controls 0 of 18)
- KSSQSVLYESRNKNSVA | GASTRES | QQYHRFPLS [Ctrl] -> 13 nM (6 of 6 replicates; controls 4 of 18)
- YVSQSVLYESRNKNSVA | NASTRES | QQYHRLPLS [GP_Gen] -> 1.5 nM (6 of 6 replicates; controls 2 of 18)
- KISQSELYESRNKNSVA | EASTRCS | QQYHRLPLS [GP_Gen] -> 840 pM (6 of 6 replicates; controls 2 of 18)
- KSSQSVEYESVNKNSVA | WASQRES | QQYHRLPLS [Ctrl] -> 12 nM (6 of 6 replicates; controls 2 of 18)
- KVSQKNLYESRMKNSVA | NASQRES | QQYHRLPLS [GP_Gibbs] -> 1.5 nM (6 of 6 replicates; controls 1 of 18)
- KLPQSMLYESRNKNSVA | DASTRES | QQYHRLPLS [GP_Gen] -> 350 pM (6 of 6 replicates; controls 1 of 18)
- KFSQKVLYEHRNKNSVA | NASTRES | QQYHRLPLS [GP_HC] -> 820 pM (6 of 6 replicates; controls 0 of 18)
- KVSQSDLYESRNKNQVA | EASTRES | QQYHRLPLS [GP_Gen] -> 1.5 nM (6 of 6 replicates; controls 3 of 18)
- KSSQHVLGESRNKNSVA | QASTRES | QQYHRLPLS [Ctrl] -> 660 pM (6 of 6 replicates; controls 1 of 18)
- KSSQSVLYESSNLNSVA | WASTRES | QQYHHIPLS [Ctrl] -> 260 nM (3 of 6 replicates; controls 2 of 18)
- KSSQSVEYESRNKISVA | EASTRES | AQYHRLPLS [Ctrl] -> nd (0 of 6 replicates; controls 0 of 18)
- KFSQSVLYESRTENSVA | NASTRES | QQYHRLPLS [GP_HC] -> 740 pM (6 of 6 replicates; controls 0 of 18)
- ALSQSVLYESRNKNSVA | GASTRES | QQYHRLPLS [GP_Gen] -> 450 pM (6 of 6 replicates; controls 1 of 18)
- HSSPSTLYESRNKNSVA | NASQRES | QQYHRLPLS [GP_HC] -> 1.8 nM (6 of 6 replicates; controls 3 of 18)
- KSSISNLYESRNENSVA | EASTREQ | QQYHRLPLS [GP_HC] -> 1.5 nM (6 of 6 replicates; controls 0 of 18)
- KVYQSQLYESRNKNSVA | NASQRES | QQYHRLPLS [GP_Gen] -> 870 pM (6 of 6 replicates; controls 0 of 18)
- QSSQSWLYESRNKNSVA | GASTRES | QQYHRLPLS [GP_HC] -> 340 pM (6 of 6 replicates; controls 1 of 18)
- KLSGSELYESRNKNSVA | EASTRES | QQYHRLPLS [GP_Gen] -> 4.0 nM (6 of 6 replicates; controls 1 of 18)
- KLWQSQLYESRNKNSVA | NASTRES | QQYHRLPLS [GP_Gen] -> 750 pM (6 of 6 replicates; controls 0 of 18)
- KLEWSWLYESRNKNSVA | NASQRES | QQYHRLPLS [GP_Gen] -> 2.6 nM (6 of 6 replicates; controls 0 of 18)
- KSDQSVLYESRNKNSVA | NASTREV | QQYHRLPLS [Ctrl] -> 1.9 nM (6 of 6 replicates; controls 1 of 18)
- KLSQSQLYESRNKNSVA | EASHREH | QQYHRLPLS [GP_Gibbs] -> 1.1 nM (6 of 6 replicates; controls 0 of 18)
- KESQMWLYESRNKNSVA | GASTRES | QQYHRLPLS [GP_HC] -> 1.1 nM (6 of 6 replicates; controls 1 of 18)
- KWSQSVLYESRNKNSVA | GASTREF | QQYHRHPLS [Ctrl] -> 2.0 µM (3 of 6 replicates; controls 1 of 18)